From PubChem BioAssay
Lamin A splicing = modulators of lamin A splicing; HeLa LMNA splicing GFP/RFP minigene ratio, 48 h; Potency, µM (highest dose often 46.1 µM), without a hit: top-dose ratio change, negative = inhibition, actives largely listed as inhibitors; 200,000 tested, 0.01% active; AID 1487; active = well fitted inhibition curve with a large enough effect in the signal ratio, with a control signal flat, not every such curve was filed as active; inconclusive = small, poorly fitted or top-dose-only effect, or effect the other way, or a change in a side signal; the % refers to the signal ratio; also: potency is read from the fitted curve at half-maximal effect; % is scaled to controls: 0 for no effect and ±100 for the full control effect
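S3 HeLa cells stably expressing lamin A-EGFP splicing minigene plus DsRed2, 600 cells/well, 48 h compound exposure at 37C. Laser-scanning cytometry; analysed as GFP (500-530 nm)/RFP (575-640 nm) total intensity ratio; 0.5% DMSO vehicle.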
G9a block = inhibitors of human histone lysine methyltransferase G9a. G9a H3K9 monomethylation, AlphaScreen, 2 h. Potency, µM (doses to about 102 µM), without a hit: top-dose activity, negative = inhibition, hits mostly inhibitors. 350,000 tested, 8.8% active. Q96KQ7; also: potency is read from the fitted curve at half-maximal effect; % is scaled to controls: 0 for no effect and ±100 for the full control effect; nearly all actives have a fitted effect of over 75% in size
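Readings reflect AlphaScreen signal from monomethyl-H3K9 antibody detection. HMT at 20 nM; substrate b-H3K9 500 nM; cofactor SAM 20 uM; 2 h RT reaction; compounds tested as titrations in qHTS with 15 min preincubation.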
ALDH1A1 inh = ALDH1A1 (human) enzyme inhibition; P00352; Purified ALDH1A1, NADH fluorescence, propionaldehyde substrate; Potency, µM (titrated, usually from 75.3 µM), without a hit: top-dose activity, negative = inhibition, hits mostly inhibitors; 220,000 tested, 7.3% active; AID 1030; active = well fitted inhibition curve with a large enough effect, not every such curve was filed as active; inconclusive = small, poorly fitted or top-dose-only effect, or another doubt; inactive = no such curve, though single readings can be large or run the other way;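 also: potency is read from the fitted curve at half-maximal effect; plate controls were no enzyme wells and a reference inhibitor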
Sfp PPTase inh = qHTS Assay for Inhibitors of Bacillus subtilis Sfp phosphopantetheinyl transferase (PPTase); Biochemical Sfp PPTase activity, qHTS; Potency, µM, for inactives: max response, negative = inhibition, actives largely listed as inhibitors; actives 3.5% (n = 310,000); AID 1490, 2009; active = well fitted inhibition curve with a large enough effect; inconclusive = small, poorly fitted or top-dose-only effect, or another doubt; inactive = no such curve, though single readings can be large or run the other way;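 note: the enzyme is Sfp with the accession as filed and its product quenches rhodamine fluorescence; potency is the fitted concentration of half-maximal effect; 0% = enzyme reaction without inhibitor and -100% = no enzyme wells; top concentration of the series not given in the record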
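Compounds were incubated with enzyme (final 15 nM) for 15 min at room temperature before substrate addition started the reaction. Fluorescence at 525 nm excitation, 598 nm emission was recorded immediately and after 30 minutes.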
miR-21 reporter = raises the signal of a miR-21 reporter; HeLa miR-21 FLuc reporter, luciferase, 48 h; Potency, µM (highest dose often 38.3 µM), for inactives: at the highest dose reporter change, positive = more light; 340,000 tested, under 10 active; active = well fitted rising curve with a large enough effect; inconclusive = small, poorly fitted or top-dose-only effect; inactive = no such curve, though single readings can be large or run the other way;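 also: % of control where 0% means no effect; miR-21 action dims this reporter so a rising signal means less miR-21 action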
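HeLa cells endogenously expressing miR-21, stably carrying CMV-driven firefly luciferase with a downstream miR-21 binding site, 2000 cells/well. Titrations up to approximately 40 uM, 48 hours; luciferase luminescence read.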
KDM4E inh = JMJD2E (human) inhibition | B2RXH2 | 230,000 tested, 1.6% active | JMJD2E catalytic domain, FDH-coupled NADH fluorescence (FDH is formaldehyde dehydrogenase) | Potency, µM (series often up to 57.1 µM), for inactives: top-dose activity change, negative = inhibition, actives largely listed as inhibitors | AID 2147; active = well fitted inhibition curve with a large enough effect, not every such curve was filed as active; inconclusive = small, poorly fitted or top-dose-only effect, or another doubt; inactive = no such curve, though single readings can be large or run the other way;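 also: potency is read from the fitted curve at half-maximal effect; 0% = wells with enzyme and -100% = buffer wells without enzyme; nearly all actives have a fitted effect of over 50% in size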
Active calls of the source: *; ? = inconclusive; / = not tested or not shown; [ ] = remark or other dose. In the library only some 13% were active in any assay of this set; here they are far more common. Unless noted, calls follow the shape of the dose curve; as a rule, active = well fitted curve in the direction sought with a large enough effect; inconclusive = small, poorly fitted or top-dose-only effect, or another doubt; inactive = no such curve, though single readings can be large; an effect the other way counts as inactive or inconclusive.

Screens in order – ALDH1A1 inh | Sfp PPTase inh | Lamin A splicing | miR-21 reporter | KDM4E inh | G9a block
COC(=O)C1C2C=CC(C3CC23)C1C(=O)OCC(=O)c1ccc(OC)cc1 (stereo not drawn)
 : 6.3µM* | -2% | -11% | -5% | -3% | -18%
COC(=O)C1C2C=CC(C3CC23)C1C(=O)OCC(=O)c1ccccc1 (stereo not drawn)
 : -18% | 12% | 3% | -8% | 3% | -2%
COc1cccc(CC(=O)OCC(=O)NC(Cc2ccccc2)C(C)=O)c1 (stereo not drawn)
 : / | / | / | / | / | -7%
CCOC(=O)N1CCN(Cc2ccc(O)c3ncccc23)CC1
 : 25µM* | 24% | ? | 29% | 13µM* | 0.79µM*
CCOC(=O)N1CCN(Cc2ccccn2)CC1
 : ? | 79µM* | -2% | -5% | ? | 7.1µM*
Cc1ccc(C)c(S(=O)(=O)N2CCN(Cc3ccc(O)c4ncccc34)CC2)c1
 : 4% | 18% | ? | 25% | 3.5µM* | -38%
O=C(c1cccs1)N1CCN(Cc2ccccn2)CC1
 : 15µM* | ? | / | -1% | -5% | 3.2µM*
CCOc1ccccc1CNC(=O)C1CCN(C(=O)N2CC(CC)Oc3ccc(C)cc32)CC1 (stereo not drawn)
 : / | / | 3%[46 µM] | 7% | / | -50%[59 µM]
N#Cc1c(Nc2ccccc2)sc(C(=O)c2ccc(F)cc2)c1N
 : 10% | -15% | ? | -12% | -1% | ?
N#Cc1c(Nc2ccccc2)sc(C(=O)C2CC2)c1N
 : 2% | -12% | -14% | -15% | -12% | 79µM*
COc1ccccc1-c1nc(SCC(=O)NCc2ccc(C)cc2)c2c(=O)n(C)c(=O)n(C)c2n1
 : / | / | -5%[46 µM] | 1% | / | -20%[59 µM]
Cc1sc(NC(=O)C2C3C=CC(C3)C2C(=O)O)c(C(N)=O)c1-c1ccc(C(C)C)cc1 (stereo not drawn)
 : -12% | 0% | ? | -6% | -4% | 14%[59 µM]
CSCCC(NS(=O)(=O)c1ccc(Cl)cc1)C(=O)OCc1c(Cl)cccc1Cl (stereo not drawn)
 : ? | 32% | ? | 1% | -1% | 31%[59 µM]
CSCCC(NS(=O)(=O)c1ccccc1F)C(=O)OCc1ccccc1Cl (stereo not drawn)
 : 16µM* | -9% | ? | 6% | -7% | 12%[59 µM]
CC1c2cc3c(cc2CCN1S(=O)(=O)c1ccccc1)OCCCO3 (stereo not drawn)
 : / | -1% | / | 2% | / | 23%
Cc1ccc(N(O)C(=O)NCCCCNC(=O)N(O)c2ccc(C)cc2)cc1
 : / | -11% | / | -17% | / | 79µM*
Cc1ccc(S(=O)(=O)NC(=O)NCCCCNC(=O)NS(=O)(=O)c2ccc(C)cc2)cc1
 : 11% | 8% | 1% | -4% | 5% | 7%
O=C(O)CN(CC(=O)O)Cc1cc2c(-c3ccccc3C(=O)O)c3cc(CN(CC(=O)O)CC(=O)O)c(=O)cc-3oc2cc1O
 : -11% | 56µM* | / | / | 4µM* | ?
O=C(O)c1ccccc1-c1c2ccc(=O)cc-2oc2cc(O)ccc12
 : -7% | 1% | ? | / | / | -47%[59 µM]
NC(=O)c1cc(N2C(=O)C=CC2=O)ccc1Cl
 : 0.79µM* | 8.9µM* | ? | 19% | -5% | 1.3µM*
NC(=S)n1[nH]c(-c2ccc([N+](=O)[O-])cc2)c(N=Nc2ccc(Cl)cc2)c1=O
 : ? | -18% | ? | 1% | -5% | 45µM*
Cc1ccc([N+](=O)[O-])cc1N=Nc1c(-c2ccc([N+](=O)[O-])cc2)[nH]n(C(N)=S)c1=O
 : 11µM* | ? | / | ? | -3% | ?
O=c1c(N=Nc2ccc(O)cc2)c(-c2ccccc2)[nH]n1-c1ccc([N+](=O)[O-])cc1
 : -13% | 11% | -29%[46 µM] | -1% | -2% | 7.1µM*
Cc1ccc([N+](=O)[O-])cc1N=Nc1c(C)[nH]n(C(N)=S)c1=O
 : / | 10% | / | -5% | / | -20%
Cc1cc(NS(=O)(=O)c2ccc(NC(=O)Cc3ccccc3)cc2)nc(C)n1
 : / | 15% | / | -2% | / | -6%[59 µM]
Cc1cc(OCC(=O)OCC(=O)Nc2ccc(Cl)cn2)ccc1Cl
 : / | / | / | / | / | 16%[59 µM]
COc1ccc(N=CC=C2OC(C)(C)C(C)(C)O2)cc1OC
 : / | -2% | / | -5% | ? | 32µM*
COc1cccc(N=CC=C2OC(C)(C)C(C)(C)O2)c1
 : ? | -9% | / | -34% | ? | 35µM*
Cc1ccccc1N=CC=C1OC(C)(C)C(C)(C)O1
 : 1% | ? | ? | -15% | -6% | 40µM*
Cc1ccc(N=CC=C2OC(C)(C)C(C)(C)O2)cc1
 : ? | 0% | -2% | -8% | ? | ?

A second format for part of the listing above.
SMILES	ALDH1A1 inh	Sfp PPTase inh	Lamin A splicing	miR-21 reporter	KDM4E inh	G9a block
Cc1cc(NS(=O)(=O)c2ccc(NC(=O)Cc3ccccc3)cc2)nc(C)n1	/	15%	/	-2%	/	-6%[59 µM]
Cc1cc(OCC(=O)OCC(=O)Nc2ccc(Cl)cn2)ccc1Cl	/	/	/	/	/	16%[59 µM]

Ordered by number of heavy atoms (largest number first): some entries from above
Screens in order – ALDH1A1 inh | Sfp PPTase inh | Lamin A splicing | miR-21 reporter | KDM4E inh | G9a block
O=C(O)c1ccccc1-c1c2ccc(=O)cc-2oc2cc(O)ccc12
 : -7% | 1% | ? | / | / | -47%[59 µM]
Cc1cc(OCC(=O)OCC(=O)Nc2ccc(Cl)cn2)ccc1Cl
 : / | / | / | / | / | 16%[59 µM]
COc1ccc(N=CC=C2OC(C)(C)C(C)(C)O2)cc1OC
 : / | -2% | / | -5% | ? | 32µM*

Later entries:
Screens in order – ALDH1A1 inh | Sfp PPTase inh | Lamin A splicing | miR-21 reporter | KDM4E inh | G9a block
COc1ccc(S(=O)(=O)Nc2cc(C)c(O)cc2C(C)C)cc1
 : -8% | 1% | -19% | -1% | 0% | 25µM*
Cc1ccc(S(=O)(=O)Nc2csc(C)c2C(=O)O)cc1
 : 11% | -4% | 15%[46 µM] | -1% | -4% | 40µM*
CCC(=O)Nc1cc(C(C)C)c(O)cc1C
 : 9% | 21% | -2% | -2% | 5% | 17%[59 µM]
COc1ccc(S(=O)(=O)Nc2cc(C(C)C)c(O)cc2C)cc1
 : 0.32µM* | 7% | 6% | -2% | -3% | -27%[12.7 µM]
CC(=O)c1sc(-c2ccccc2)cc1NS(=O)(=O)c1ccc(C)cc1
 : / | 13% | / | -5% | ? | 5%
C/C(=N\S(=O)(=O)c1ccc(C)cc1)Nc1cc(C(C)C)c(O)cc1C
 : 2.8µM* | 10% | ? | 2% | -1% | -23%[59 µM]
COc1ccc(S(=O)(=O)c2c(O)cc(C)c(NS(=O)(=O)c3ccccc3)c2C)cc1
 : / | 12% | / | 9% | / | 10%[12.7 µM]
Cc1ccc(NC(=O)c2cc(S(=O)(=O)N3CCc4ccccc43)cn2C)c(Cl)c1
 : / | / | -17%[46 µM] | 0% | / | -30%[59 µM]
CCOC(=O)c1cccc(NC(=O)c2cc3c(Cl)nc4ccc(C)cc4c3s2)c1
 : / | / | / | 19% | / | -24%[59 µM]
O=C(Nc1nc2ccc(S(=O)(=O)N3CCCC3)cc2s1)c1cccc(F)c1
 : / | / | ? | -15% | / | -10%[59 µM]
Cc1ccc(S(=O)(=O)Nc2cc(C)c(O)cc2C)cc1
 : ? | 0% | / | -1% | -10% | 50µM*
COc1nccnc1NS(=O)(=O)c1ccc(N/C=C2\CCCCC2=O)cc1
 : ? | 14% | 3%[9.22 µM] | -3% | -21% | 50µM*
COc1nccnc1NS(=O)(=O)c1ccc(NCc2cc(Br)ccc2O)cc1
 : / | 19% | / | -60% | / | 45µM*
CCc1nnc(NS(=O)(=O)c2ccc(NCc3cc(Br)ccc3O)cc2)s1
 : / | 10% | / | -5% | / | /
COc1ccc2c(c1)O/C(=C\c1ccco1)C2=O
 : / | 4.5µM* | / | -25% | ? | /
CC(=O)COc1ccc2c(c1C)O/C(=C\c1ccco1)C2=O
 : / | ? | / | -71% | / | 28µM*
COC(=O)C(C)Oc1ccc2c(c1)O/C(=C\c1ccco1)C2=O (stereo not drawn)
 : / | ? | / | -1% | / | 11µM*
